Experimental data from patent US4550115A, “Certain piperidino-lower-alkylene esters of 3-methylflavone-8-carboxylates possessing smooth muscle relaxant activity” (Recordati S.A., Chemical & Pharmaceutical Company, priority 1981, dated 1985).

Experiments:
[1] = Stability test, pH 7.4 (37° C., phosphate buffer; spectrodensitometric determination of 3-methylflavone-8-carboxylic acid from hydrolysis)
guinea pig ileum = test: Antispastic or antispasmodic activity, BaCl2-induced contraction of guinea pig ileum (Magnus method); conditions: read-out: ED50 (antispastic or antispasmodic activity), 30° C., BaCl2 1 to 4.10^-4 M, drug one minute before BaCl2, inhibition of contraction

`Cc1c(-c2ccccc2)oc2c(C(=O)OC3CN4CCC3CC4)cccc2c1=O.Cl` (stereo not drawn) showed a Stability test, pH 7.4, after 1 hour ([1]; phosphate buffer pH 7.4, after 1 hour) of 100% and a Stability test, pH 7.4, after 3 hours ([1]; phosphate buffer pH 7.4, after 3 hours) of 100%.

For `Cc1c(-c2ccccc2)oc2c(C(=O)OC3CN4CCC3CC4)cccc2c1=O` (stereo not drawn), the IC50 (guinea pig ileum) was 2.1 µM.
